Reference: patent US11802108B2, “Compounds for the modulation of cyclophilins function” (The University Court of The University of Edinburgh, priority 2018, dated 2023)

Chains of the proteins cited; added tags and fusions are not shown. Residues count along the entry.
UniProt P23284, 34-216: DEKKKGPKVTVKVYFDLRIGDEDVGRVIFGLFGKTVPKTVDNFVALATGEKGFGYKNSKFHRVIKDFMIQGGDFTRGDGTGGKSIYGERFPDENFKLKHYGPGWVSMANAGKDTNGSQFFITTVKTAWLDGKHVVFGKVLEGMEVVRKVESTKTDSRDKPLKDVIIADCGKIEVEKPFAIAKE
UniProt P30405, 30-207: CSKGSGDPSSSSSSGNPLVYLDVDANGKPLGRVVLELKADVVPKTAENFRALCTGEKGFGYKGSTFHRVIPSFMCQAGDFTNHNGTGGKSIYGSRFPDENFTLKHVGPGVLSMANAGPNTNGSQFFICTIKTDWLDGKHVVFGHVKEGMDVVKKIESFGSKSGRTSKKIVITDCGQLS
UniProt P62937, whole entry: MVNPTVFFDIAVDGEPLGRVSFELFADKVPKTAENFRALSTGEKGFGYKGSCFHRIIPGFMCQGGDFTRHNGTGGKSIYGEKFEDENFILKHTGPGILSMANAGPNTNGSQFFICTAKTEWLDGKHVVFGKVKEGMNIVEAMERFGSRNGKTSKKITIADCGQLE

Key:
CypB = CypB (Homo sapiens (Human), UniProt P23284); assay: Surface plasmon resonance (SPR) binding to His-CypB
Experimental: (§1) Single cycle kinetic titration binding experiments were performed using SPR in triplicate at 25° C. […] The sensor surface was regenerated between experiments by dissociating any formed complex in running buffer for at least 1,200 seconds.
(§2) Kinetic titration binding experiments were performed in triplicate at 25° C. […] The sensor surface was regenerated between experiments by dissociating any formed complex in running buffer for at least a further 600 seconds.

CypD = CypD (Homo sapiens (Human), UniProt P30405); assay: Surface plasmon resonance (SPR) binding to His-CypD; settings: 25° C., triplicate
Experimental: (§3) SPR measurements were performed on a BIAcore T200 instrument (GE Healthcare). Ni^2+-nitrilotriacetic acid (NTA) sensor chips, 1-ethyl-3-(3-[…]) carbodiimide hydrochloride (EDC) and Nhydroxysuccinimide (NHS) were purchased from GE Healthcare.
(§4) Pure His-cyclophilins were immobilized and covalently stabilized on the NTA sensor chip according to the protocol described in Thermo-kinetic analysis space expansion for cyclophilin-ligand interactions—identification of a new nonpeptide inhibitor using Biacore T200.
as §1, §2

CypA [1] = molecular target: T1, CypA (Homo sapiens (Human), UniProt P62937); assay: X-ray co-crystal structure with CypA; format: binding; settings: apo CypA crystals soaked with 5 mM ligand; also: key: Y: observed in cocrystal; N: not observed in cocrystal
Experimental: Purified and his-tag-cleaved CypA was buffer-exchanged into PBS and concentrated to ˜29 mg ml^−1. For crystallisation 1 μL of protein was mixed with an equal volume of the well solution, consisting of 100 mM Tris-HCl pH8.0 and 20-22% v/v PEG 8000, and crystal formation came about after equilibration overnight in 6° C. by vapour diffusion using the hanging drop method over 1 mL of the same well solution. Apo CypA crystals were soaked overnight into different ligand solution consisting of 100 mM Tris-HCl pH 8.0, 35% w/v PEG 8000, 5% v/v Glycerol, 5% v/v DMSO and 5 mM ligand, before flash frozen into liquid nitrogen. X-ray data were collected at the Diamond synchrotron-radiation facility in Oxford-shire, England at 100K. Structures were solved by molecular replacement using DIMPLE from the CCP4i suite. Modelled structures were visualised and manually adjusted as needed using Coot10 and further refined using REFMAC5 from CCP4i.
FIG. 1A summarises the mode of binding of certain prior-art urea small molecule Cyp inhibitors.

CypA [2] = molecular target: T1, CypA; assay: Isothermal titration calorimetry (ITC) binding to CypA; settings: 25° C.
Experimental: All ITC experiments for the ester series compounds were carried out at 25° C. on a MicroCal Auto iTC200 (GE Healthcare) instrument. The buffer used in the titrations of the compounds belonging to the ester series was 50 mM phosphate buffer, pH 6.5 and the concentration of DMSO was 2% v/v for all the compounds, unless otherwise stated in Table 51. Final compound solutions were heated to 65° C. and/or sonicated prior to the experiment. Each experiment consisted of an initial injection of 0.4 μL followed by nineteen 2 μL injections and in most of cases for these compounds, the “continue injections” protocol was used leaving the cell intact and performing a second series of titrations using the above protocol to achieve saturation. Control experiments were performed, where each compound was titrated into buffer and when small amount of heat was detected due to heat of dilution, it was subtracted when processing the data using a linear fit method. In all cases the first injection was omitted from the data processing. All data were analysed using the MicroCal PEAQ-ITC Analysis software.
The buffer used for these titrations was: PBS, 0.05% v/v P20 surfactant, 50 μM EDTA in presence of 2% v/v EtOH and the pH was set to 7.4.

CypA [3] = molecular target: T1, CypA; assay: Surface plasmon resonance (SPR) binding to His-CypA; settings: 25° C., triplicate
Experimental: as §3, §4, §1, §2

SMILES: Cl.Cn1cc(CN(Cc2ccc(N)cc2)C(=O)NCC(=O)N2CCCC2c2ccccc2Br)nn1 (stereo in doubt) [Compound 7, 1-[(4-aminophenyl)methyl]-3-{2-[(2S)-2-(2-bromophenyl)pyrrolidin-1-yl]-2-oxoethyl}-1-[(1-methyl-1H-1,2,3-triazol-4-yl)methyl]urea hydrochloride]
- Kd (CypB): 0.7 ± 0.4 µM
- Kd (CypD): 4.7 ± 2.9 µM
- CypA X-ray co-crystal (CypA [1]): Y
- Kd (CypA [2]): 3 ± 0.5 µM
- Kd (CypA [3]): 4.5 ± 1 µM

SMILES: Cl.Cn1cc(CN(Cc2ccc(N)cc2)C(=O)NCC(=O)N2CCCC2c2ccccc2Br)nn1 (stereo not shown) [Compound 3, 1-[(4-aminophenyl)methyl]-3-{2-[2-(2-bromophenyl)pyrrolidin-1-yl]-2-oxoethyl}-1-[(1-methyl-1H-1,2,3-triazol-4-yl)methyl]urea hydrochloride]
- Kd (CypB; SPR, 25° C., triplicate, read-out: CypB Kd (SPR)): 0.3 ± 0.2 µM
- Kd (CypD): 2.9 ± 1.2 µM
- CypA X-ray co-crystal (CypA [1]): Y
- Kd (CypA [2]): ~1 µM
- Kd (CypA [3]): 1.7 ± 1 µM

Read-outs that look alike come from different tables or passages of the source.
